Laboratory results published in ChEMBL document CHEMBL2163217, “A straightforward approach for engineering efficacy and selectivity at GPCRs” (J Med Chem, 2012).
Active and inactive are the calls of the source. No cut-off for these calls is given here.

Amino acid sequences for entries named in this document (tags omitted).
UniProt P35462, whole entry: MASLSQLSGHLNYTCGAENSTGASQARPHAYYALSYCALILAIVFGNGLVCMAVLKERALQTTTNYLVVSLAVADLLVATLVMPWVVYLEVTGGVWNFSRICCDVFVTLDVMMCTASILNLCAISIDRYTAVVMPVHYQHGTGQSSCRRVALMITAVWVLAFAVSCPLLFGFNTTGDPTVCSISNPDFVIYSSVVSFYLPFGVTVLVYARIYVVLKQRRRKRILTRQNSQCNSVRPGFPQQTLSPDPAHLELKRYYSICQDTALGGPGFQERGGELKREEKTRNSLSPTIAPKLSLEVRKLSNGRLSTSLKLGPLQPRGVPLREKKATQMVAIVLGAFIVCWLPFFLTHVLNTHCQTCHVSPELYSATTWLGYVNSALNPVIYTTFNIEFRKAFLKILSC
UniProt P14416, whole entry: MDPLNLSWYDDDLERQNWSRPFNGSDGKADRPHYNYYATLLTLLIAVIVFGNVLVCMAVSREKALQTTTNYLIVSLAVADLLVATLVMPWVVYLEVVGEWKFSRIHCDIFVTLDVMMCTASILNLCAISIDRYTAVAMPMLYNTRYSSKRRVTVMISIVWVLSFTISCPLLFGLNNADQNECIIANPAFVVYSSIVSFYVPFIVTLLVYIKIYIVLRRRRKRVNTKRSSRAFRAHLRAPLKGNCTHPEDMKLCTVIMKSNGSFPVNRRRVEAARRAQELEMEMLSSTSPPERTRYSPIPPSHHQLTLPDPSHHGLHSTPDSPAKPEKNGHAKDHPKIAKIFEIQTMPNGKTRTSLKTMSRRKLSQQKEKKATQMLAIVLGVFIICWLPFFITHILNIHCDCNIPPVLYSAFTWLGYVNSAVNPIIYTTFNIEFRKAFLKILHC

Key:
Format in all cases: functional
[1] = target: D(3) dopamine receptor (Homo sapiens) (UniProt P35462); test: Partial agonist activity at D3 receptor relative to control
[2] = target: D(2) dopamine receptor (Homo sapiens) (UniProt P14416); test: Partial agonist activity at D2 receptor
[3] = target: D(2) dopamine receptor (Homo sapiens) (UniProt P14416); test: Partial agonist activity at D2 receptor relative to control

O=C(NCCCCN1CCN(c2cccc(Cl)c2Cl)CC1)c1cc2ccccc2[nH]1
Emax [1]: 8%
Activity [2]: Active
Emax [3]: 8%
